Amino acid sequences for entries named in this document (tags omitted). A change or cut given only in a name is not applied to a line headed by its entry.
UniProt P30994: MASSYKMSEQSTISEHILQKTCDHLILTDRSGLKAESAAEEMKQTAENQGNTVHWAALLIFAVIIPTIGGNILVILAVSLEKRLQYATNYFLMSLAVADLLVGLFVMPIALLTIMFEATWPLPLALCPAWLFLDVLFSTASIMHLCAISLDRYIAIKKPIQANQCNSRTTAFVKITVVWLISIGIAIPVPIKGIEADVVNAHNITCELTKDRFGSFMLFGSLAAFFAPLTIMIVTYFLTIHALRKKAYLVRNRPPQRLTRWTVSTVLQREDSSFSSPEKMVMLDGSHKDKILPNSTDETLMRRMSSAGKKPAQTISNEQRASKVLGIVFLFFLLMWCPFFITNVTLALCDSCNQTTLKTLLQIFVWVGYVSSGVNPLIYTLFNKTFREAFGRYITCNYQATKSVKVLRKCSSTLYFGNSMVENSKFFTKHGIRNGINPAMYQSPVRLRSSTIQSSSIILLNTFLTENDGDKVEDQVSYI
UniProt P08909: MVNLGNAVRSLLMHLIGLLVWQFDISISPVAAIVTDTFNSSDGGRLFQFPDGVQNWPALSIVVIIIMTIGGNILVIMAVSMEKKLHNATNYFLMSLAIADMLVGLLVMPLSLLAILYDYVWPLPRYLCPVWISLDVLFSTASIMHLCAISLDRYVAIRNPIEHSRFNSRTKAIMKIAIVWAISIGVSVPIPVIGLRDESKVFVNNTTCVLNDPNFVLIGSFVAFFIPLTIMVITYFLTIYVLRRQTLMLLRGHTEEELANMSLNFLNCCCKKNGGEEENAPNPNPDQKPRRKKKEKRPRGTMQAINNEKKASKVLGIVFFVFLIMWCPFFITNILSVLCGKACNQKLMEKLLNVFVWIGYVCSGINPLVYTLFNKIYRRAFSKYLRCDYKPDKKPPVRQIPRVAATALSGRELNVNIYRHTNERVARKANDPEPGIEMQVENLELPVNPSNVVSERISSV
UniProt P14842: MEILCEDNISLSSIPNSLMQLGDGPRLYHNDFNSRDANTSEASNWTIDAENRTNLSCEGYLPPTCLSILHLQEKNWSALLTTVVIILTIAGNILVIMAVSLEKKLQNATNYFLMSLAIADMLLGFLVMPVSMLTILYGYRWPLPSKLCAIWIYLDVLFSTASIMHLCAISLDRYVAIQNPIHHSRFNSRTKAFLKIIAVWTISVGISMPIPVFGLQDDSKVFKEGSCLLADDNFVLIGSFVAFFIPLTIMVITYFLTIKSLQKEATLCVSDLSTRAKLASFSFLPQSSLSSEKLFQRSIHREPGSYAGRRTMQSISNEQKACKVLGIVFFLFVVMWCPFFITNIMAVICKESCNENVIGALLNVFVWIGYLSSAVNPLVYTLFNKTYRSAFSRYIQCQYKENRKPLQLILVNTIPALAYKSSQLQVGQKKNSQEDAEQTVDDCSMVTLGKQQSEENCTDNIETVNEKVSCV

In ChEMBL document CHEMBL1126850, “Examination of the D2/5-HT2 affinity ratios of resolved 5,6,7,8,9,10-hexahydro-7,10-iminocyclohept[b]indoles: an enantioselective approach toward the design of potential atypical antipsychotics” (J Med Chem, 1993):

Biological target: Serotonin 2 (5-HT2) receptor (Rattus norvegicus, UniProt P30994+P08909+P14842)
Test: In vitro binding affinity towards 5-hydroxytryptamine 2 receptor in rat striatal membranes by [3H]ketanserin displacement.
Assay type: cell membranes, Striatum, Membrane

Cc1nc2sccn2c(=O)c1CCN1CCC(=C(c2ccc(F)cc2)c2ccc(F)cc2)CC1 [RITANSERIN]
Ki: 0.61 nM
